Article PMC7723054
The other results are listed elsewhere or left out.

T1: LIN28A (human?, UniProt Q9H9Z2 1-209)
T1 sequence: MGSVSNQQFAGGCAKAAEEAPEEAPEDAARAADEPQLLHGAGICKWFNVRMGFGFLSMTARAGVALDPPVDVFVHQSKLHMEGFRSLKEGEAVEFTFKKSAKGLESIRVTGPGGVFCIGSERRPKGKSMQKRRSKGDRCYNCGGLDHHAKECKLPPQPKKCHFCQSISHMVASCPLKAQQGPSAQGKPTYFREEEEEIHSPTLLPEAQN

T2: CIRBP (Homo sapiens, UniProt Q14011 1-172)
T2 sequence: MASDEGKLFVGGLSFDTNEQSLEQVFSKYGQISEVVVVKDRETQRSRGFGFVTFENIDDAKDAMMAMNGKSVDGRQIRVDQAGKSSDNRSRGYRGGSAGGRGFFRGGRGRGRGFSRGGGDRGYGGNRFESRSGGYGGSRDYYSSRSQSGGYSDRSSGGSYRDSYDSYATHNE

T3: DHX36 (Homo sapiens, UniProt Q9H2U1 1-1008)
T3 sequence: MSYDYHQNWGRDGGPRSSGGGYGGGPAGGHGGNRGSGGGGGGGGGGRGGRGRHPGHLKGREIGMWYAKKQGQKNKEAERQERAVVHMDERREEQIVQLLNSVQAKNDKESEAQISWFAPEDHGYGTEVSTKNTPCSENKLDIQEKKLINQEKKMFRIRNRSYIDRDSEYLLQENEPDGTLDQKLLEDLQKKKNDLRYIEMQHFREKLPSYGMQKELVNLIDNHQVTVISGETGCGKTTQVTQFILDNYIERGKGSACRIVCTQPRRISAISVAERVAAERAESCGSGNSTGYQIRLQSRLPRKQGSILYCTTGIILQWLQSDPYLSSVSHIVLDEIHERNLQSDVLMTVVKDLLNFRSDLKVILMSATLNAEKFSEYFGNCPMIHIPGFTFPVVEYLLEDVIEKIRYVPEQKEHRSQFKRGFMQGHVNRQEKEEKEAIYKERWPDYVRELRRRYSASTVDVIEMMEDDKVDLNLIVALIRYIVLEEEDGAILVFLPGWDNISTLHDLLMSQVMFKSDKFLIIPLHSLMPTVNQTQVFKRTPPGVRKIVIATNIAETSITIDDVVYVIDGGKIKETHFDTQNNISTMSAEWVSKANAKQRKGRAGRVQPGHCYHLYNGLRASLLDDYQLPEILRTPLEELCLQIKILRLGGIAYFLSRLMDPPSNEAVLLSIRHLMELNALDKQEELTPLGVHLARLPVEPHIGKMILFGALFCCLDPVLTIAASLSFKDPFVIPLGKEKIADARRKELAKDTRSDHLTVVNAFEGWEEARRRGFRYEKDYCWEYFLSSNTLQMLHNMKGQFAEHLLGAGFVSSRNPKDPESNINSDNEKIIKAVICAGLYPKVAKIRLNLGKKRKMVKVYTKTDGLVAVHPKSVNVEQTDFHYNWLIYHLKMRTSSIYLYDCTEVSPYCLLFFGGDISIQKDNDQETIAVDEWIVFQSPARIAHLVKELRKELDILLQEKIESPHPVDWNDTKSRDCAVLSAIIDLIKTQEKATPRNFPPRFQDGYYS

B1: hsa-mir-1231 (structured_RNA)
RNA: GGGAAACCUGCUUGUGGGAAGCUAAUGAGGUGUACGAAGUUUCAGCCUGCAGGAAAGGGAAGACCAAGGCUUGCUGUCUGUCCAGUCUGCCACCCUACCCUGUGCUGAAGCUUCGUGCAC
B2: hsa-mir-1291 (structured_RNA)
RNA: GGGAAUUCCGUUGAUGUAGGCGCCAGCUGGUGUACGAAGUUUCAGCCAGUUGUACUGUGGCUGGCUGAAGCUUCGUGCAC
B3: hsa-mir-190a (structured_RNA)
RNA: GGGAAGGUUUGUUAAAGCAGGUUGCGAAGGUGUACGAAGUUUCAGCUAGGUUGUUAUUUAAUCCAACUGCUGAAGCUUCGUGCAC
B4: hsa-mir-3690-1_3690-2 (structured_RNA)
RNA: GGGAAACAGUAAAGCCGGCAAGAAACCAGGUGUACGAAGUUUCAGCAAAGAGGUGUUUCUACUCCAUGCUGAAGCUUCGUGCAC
B5: hsa-mir-5003 (structured_RNA)
RNA: GGGAAAAGGGUUUGCGCUACAAGUGGACGGUGUACGAAGUUUCAGCGGUAGAGAUGAUUUUUCCUACUGCUGAAGCUUCGUGCAC
B6: hsa-mir-652 (structured_RNA)
RNA: GGGAACGCGGACCAAUAGACAAUUAAGGGGUGUACGAAGUUUCAGCCAUUCACAUAGACUAUAAUUGAAUGGCUGAAGCUUCGUGCAC
B7: hsa-mir-1284 (structured_RNA)
RNA: GGGAACGCAACAGGGAUCUAAGAAUAGUGGUGUACGAAGUUUCAGCUUUCUUAAAUUUUAUAUAUUGGAAGCUGAAGCUUCGUGCAC
B8: hsa-mir-328 (structured_RNA)
RNA: GGGAAUUAAGACGGGCGCAGCGGACUUAGGUGUACGAAGUUUCAGCUCAGGGAGAAAGUGCAUACAGCCCCUGGCUGAAGCUUCGUGCAC
B9: hsa-mir-8061 (structured_RNA)
RNA: GGGAAAGGAAUCUGCGAAGUUAGAGGUUGGUGUACGAAGUUUCAGCUGUUCAGUGGGAUUUGGAGAGCUGAAGCUUCGUGCAC
B10: hsa-mir-6132 (structured_RNA)
RNA: GGGAAUAUCCGGUGCUCACCGCUUCCUCGGUGUACGAAGUUUCAGCUGCAGUAUCCGCUGUUGCUGCUGCUGAAGCUUCGUGCAC
B11: hsa-mir-4528 (structured_RNA)
RNA: GGGACGGUCAAAGCUGCGUCAGCACUAAGGUGUACGAAGUUUCAGCUGAUCAUUAUAUGUAUGAUGAGAUCAUGCUGAAGCUUCGUGCAC
B12: hsa-mir-18a (structured_RNA)
RNA: GGGAAAGCCGGGGAGUUAAAUCUCAAAGGGUGUACGAAGUUUCAGCAGAUAGUGAAGUAGAUUAGCAUCUACUGCUGAAGCUUCGUGCAC
B13: hsa-mir-888 (structured_RNA)
RNA: GGGAAUCACGAUCCUGAGACGCUAUGGGGGUGUACGAAGUUUCAGCAGUCACUUAGAUUACAUGUGACUGCUGAAGCUUCGUGCAC

Molecular target: T1, LIN28A
Assay: FOREST: bead pull-down of RNA structure library v1, barcode microarray; U1A/LIN28A: 20 mM HEPES pH 7.5, 80 mM KCl, 20 mM NaCl, 10% glycerol, 2 mM DTT, 0.1 ug/uL BSA, 4 C; BG4/CIRBP/DHX36: 10 mM Tris-HCl pH 7.5, 100 mM KCl (or LiCl),; high values mean tight binding

Binder | binding signal
B1 | 0.777 z-score
B2 | 0.778 z-score
B3 | 0.811 z-score
B4 | 0.812 z-score
B5 | 0.805 z-score
B6 | 0.789 z-score
B7 | 0.78 z-score
B8 | 0.764 z-score
B9 | 0.83 z-score
B10 | 0.795 z-score
B11 | 0.836 z-score
B12 | 0.809 z-score
B13 | 0.804 z-score

Molecular target: T2, CIRBP
Assay: as above

Binder | binding signal
B1 | 0.123 z-score
B2 | 0.216 z-score
B3 | 1.49 z-score
B4 | 1.52 z-score
B5 | 0.0925 z-score
B6 | 0.836 z-score
B7 | 2.28 z-score
B8 | 0.00528 z-score
B9 | 2.12 z-score
B10 | 1.06 z-score
B11 | -1.83 z-score
B12 | 0.982 z-score
B13 | -1.66 z-score

Molecular target: T3, DHX36
Assay: as above

Binder | binding signal
B1 | 0.61 z-score
B2 | -1.03 z-score
B3 | 0.834 z-score
B4 | 0.246 z-score
B5 | -0.135 z-score
B6 | 0.546 z-score
B7 | 0.118 z-score
B8 | 2.22 z-score
B9 | 1.93 z-score
B10 | 0.472 z-score
B11 | -0.0532 z-score
B12 | -0.287 z-score
B13 | 0.444 z-score
